{"sequences": {"note": "By UniProt entry, the sequences of proteins in these tests, tags left out.", "UniProt P28223, whole entry": "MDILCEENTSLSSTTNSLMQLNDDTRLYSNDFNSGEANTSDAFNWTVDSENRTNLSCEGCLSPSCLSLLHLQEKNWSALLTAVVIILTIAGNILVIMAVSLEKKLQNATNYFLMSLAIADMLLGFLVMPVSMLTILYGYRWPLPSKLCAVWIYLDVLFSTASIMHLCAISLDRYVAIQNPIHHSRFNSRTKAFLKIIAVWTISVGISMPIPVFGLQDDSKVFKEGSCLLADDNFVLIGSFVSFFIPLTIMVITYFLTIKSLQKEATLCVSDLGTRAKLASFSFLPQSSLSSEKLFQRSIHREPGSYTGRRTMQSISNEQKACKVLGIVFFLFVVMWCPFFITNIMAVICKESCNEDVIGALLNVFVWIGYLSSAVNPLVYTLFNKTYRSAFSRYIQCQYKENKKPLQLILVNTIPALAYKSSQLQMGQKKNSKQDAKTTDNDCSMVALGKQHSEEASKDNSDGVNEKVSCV"}, "source": "patent US6358698B1", "about": "(Acadia Pharmacueticals Inc., priority 1998, dated 2002)", "biological_target": "5-HT2A receptor (Homo sapiens, UniProt P28223)", "test": "R-SAT functional assay, constitutively active wild type 5-HT2A receptor in NIH 3T3 cells", "conditions": "5-HT2A Receptor Negative Log EC50 (inverse agonism), Table 3; 50 ng/well receptor DNA"}
{"smiles": "CC1CCN(CCCC(=O)c2ccc(F)cc2)CC1", "note": "[Melperone]", "values": [{"measurement": "EC50", "value": 110, "unit": "nM"}]}
